Assay results: patent publication US20110105389A1 (priority 2009, published 2011)

Sequences of proteins named here, by UniProt entry; tags and fusion partners are left off.
UniProt Q92847, whole entry: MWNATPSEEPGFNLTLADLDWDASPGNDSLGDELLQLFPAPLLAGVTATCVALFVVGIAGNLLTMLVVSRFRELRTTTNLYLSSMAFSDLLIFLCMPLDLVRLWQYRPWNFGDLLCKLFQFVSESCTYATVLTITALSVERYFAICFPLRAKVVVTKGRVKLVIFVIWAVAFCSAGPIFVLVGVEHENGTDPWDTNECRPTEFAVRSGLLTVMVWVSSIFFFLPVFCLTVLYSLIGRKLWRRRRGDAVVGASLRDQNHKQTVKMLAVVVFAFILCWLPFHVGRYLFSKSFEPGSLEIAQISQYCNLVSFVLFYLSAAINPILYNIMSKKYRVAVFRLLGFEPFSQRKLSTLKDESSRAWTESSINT

Target: human ghrelin receptor (GRLN, growth hormone secretagogue receptor, hGHS-R1a) (Homo sapiens, UniProt Q92847)
Experiment: Competitive radioligand binding assay (ghrelin receptor), Method B1
Details: Ghrelin receptor binding activity

## CC[C@@H]1CCc2cccnc2OCCN[C@@H](C2(C)CC2)C(=O)N(C)[C@@H](C(C)O)C(=O)N[C@H](Cc2ccccc2)C(=O)N1 (single isomer, unassigned)
  IC50: 100 to 500 nM

## CC(O)[C@H]1C(=O)N[C@H](Cc2c[nH]c3ccccc23)C(=O)NC2CCC(C2)c2ccccc2OCCN[C@@H](C2(C)CC2)C(=O)N1C (single isomer, unassigned)
  IC50: 10 to 100 nM
